The record followed here is US20250041438A1, “ANTIBODY-DRUG CONJUGATE” (NOVELTY NOBILITY INC., priority 2022, published 2025).

This experiment concerns GIST-T1 cells. Format: in vivo.

As to `Cc1ccc(NC(=O)c2ccc(CN3CCN(C)CC3)cc2)cc1Nc1nccc(-c2cccnc2)n1` [imatinib, reference compound], where the note is “day 56, imatinib 100 mg/kg p.o.”, the “tumor growth compared to the control (vehicle), in words” value is “inhibited tumor growth”. Moreover, for the setting “imatinib alone 100 mg/kg p.o.”, the “tumor course after treatment was discontinued” value is “the tumor recurred after treatment was discontinued”.
